The values below come from PubChem BioAssay AID463210 (The Scripps Research Institute Molecular Screening Center, 2010).

The chains behind the UniProt entries cited, without tags or fusion partners.
UniProt P55210, whole entry D23A/D198A/D206A: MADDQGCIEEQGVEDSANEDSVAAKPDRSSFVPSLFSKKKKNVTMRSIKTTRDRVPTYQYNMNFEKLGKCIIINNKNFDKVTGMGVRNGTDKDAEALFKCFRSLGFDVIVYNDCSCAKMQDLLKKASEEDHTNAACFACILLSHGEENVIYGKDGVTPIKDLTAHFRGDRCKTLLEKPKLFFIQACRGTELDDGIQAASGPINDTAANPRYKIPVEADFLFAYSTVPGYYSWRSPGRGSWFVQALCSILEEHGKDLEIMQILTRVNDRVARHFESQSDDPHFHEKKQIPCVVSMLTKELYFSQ

This is a selection; strong and weak results do not stand in their true shares. Calls of active or inactive are those of the source.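 Rule for the calls: active = percent activation above the screen-wide mean plus 3 SD (cut at about 25% in these data); inactive = the rest.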

The target in this test is Caspase-7 (Homo sapiens) (UniProt P55210). The experiment in a line: activation of procaspase-7 enzyme – biochemical, absorbance, HTS, human, counter-screen for procaspase-3 activator project, primary screen (AID 463210). Conditions: recombinant procaspase-7, Ac-DEVD-pNA absorbance 405 nm; at 8.5 µM; hits give high values; D23A/D198A/D206A triple mutant, cannot self-cleave; scale: DMSO 0, 5 µM enzyme 100. (The purpose of a counterscreen is to sort out artefacts and off-target activity.)
With `CCC(=O)N(c1ccccc1)C1(COC)CCN(CCn2nnn(CC)c2=O)CC1`, the activation is inactive: -2.41%. On to `CCC(=O)N(c1ccccc1)C1(COC)CCN(CCc2cccs2)CC1`, for which the activation was inactive: -13.7%.
